# According to PubChem BioAssay AID2718 (Broad Institute, 2010):
# By UniProt entry, the sequences of proteins in these tests, tags left out.
# UniProt O15379, whole entry: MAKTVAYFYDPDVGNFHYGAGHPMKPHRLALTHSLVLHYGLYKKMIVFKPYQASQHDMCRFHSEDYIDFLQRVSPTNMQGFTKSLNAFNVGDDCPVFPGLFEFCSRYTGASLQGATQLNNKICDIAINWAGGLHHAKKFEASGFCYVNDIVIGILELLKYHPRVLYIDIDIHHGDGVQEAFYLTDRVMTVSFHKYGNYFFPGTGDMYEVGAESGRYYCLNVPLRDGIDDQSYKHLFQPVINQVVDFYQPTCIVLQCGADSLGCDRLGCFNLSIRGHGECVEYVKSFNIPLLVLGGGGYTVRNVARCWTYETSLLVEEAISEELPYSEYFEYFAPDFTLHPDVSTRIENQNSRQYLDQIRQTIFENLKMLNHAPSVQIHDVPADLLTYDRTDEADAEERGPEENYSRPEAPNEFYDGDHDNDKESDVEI
# The list shows a part of the results, in another mix than the full data. Active and inactive are the calls of the source. Cut-off read from the data, not from the text of the source: active = inhibition above about 26% (passing the limit was not always enough); inconclusive = no clear call, values can overlap the other calls.
# Target: Histone deacetylase 3 (Homo sapiens) (UniProt O15379)
# Assay: inhibition of human HDAC3 enzyme activity – biochemical, fluorescence, cell-free homogeneous, primary screen (AID 2718)
# Settings: recombinant HDAC3, fluorogenic peptide/trypsin coupled, at 8.3 µM, stronger effect = higher value
row,Structure (SMILES),inhibition
1,CP(=O)(Oc1ccccc1)N1CCOC1=O (stereo unspecified),inactive: 1.95%
